From publication PMC6042076 (Proceedings of the National Academy of Sciences of the …, 2018)
Like-named read-outs stand apart in the source and are kept apart here.

Sequences of proteins named here, by UniProt entry; tags and fusion partners are left off. A change or cut given only in a name is not applied to a line headed by its entry.
UniProt Q9KVG8: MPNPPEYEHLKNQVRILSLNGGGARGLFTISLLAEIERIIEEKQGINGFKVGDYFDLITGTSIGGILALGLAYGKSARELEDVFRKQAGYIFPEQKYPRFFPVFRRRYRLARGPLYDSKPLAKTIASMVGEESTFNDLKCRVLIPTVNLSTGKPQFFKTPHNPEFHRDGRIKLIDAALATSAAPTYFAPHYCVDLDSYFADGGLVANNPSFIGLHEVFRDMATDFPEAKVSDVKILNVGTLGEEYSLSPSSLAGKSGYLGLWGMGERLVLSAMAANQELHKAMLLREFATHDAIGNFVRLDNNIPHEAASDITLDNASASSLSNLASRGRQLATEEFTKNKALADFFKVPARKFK

Key:
[1] = biological target: T1, CapV (VC0178; cGAMP-activated phospholipase in Vibrio) (Vibrio cholerae, UniProt Q9KVG8); details: 1.6 µM CapV
[2] = biological target: T1, CapV (VC0178; cGAMP-activated phospholipase in Vibrio); assay: biochemical

| SMILES | lowest concentration giving FP-Rh labeling ([1]; weak activator) | Kd [2] | lowest concentration giving FP-Rh labeling ([1]; activator) |
| --- | --- | --- | --- |
| Nc1ncnc2c1ncn2[C@@H]1O[C@@H]2COP(=O)(O)O[C@H]3[C@@H](O)[C@H](n4cnc5c(N)ncnc54)O[C@@H]3COP(=O)(O)O[C@H]2[C@H]1O [c-di-AMP] | 50 µM |  |  |
| Nc1nc2c(ncn2[C@@H]2O[C@@H]3COP(=O)(O)O[C@H]4[C@@H](O)[C@H](n5cnc6c(=O)[nH]c(N)nc65)O[C@@H]4COP(=O)(O)O[C@H]3[C@H]2O)c(=O)[nH]1 [c-di-GMP] | 25 µM |  |  |
| Nc1nc2c(ncn2[C@@H]2O[C@@H]3COP(=O)(O)O[C@H]4[C@@H](O)[C@H](n5cnc6c(N)ncnc65)O[C@@H]4COP(=O)(O)O[C@H]3[C@H]2O)c(=O)[nH]1 [cGAMP] |  | 8.6 ± 1.9 µM | 0.05 µM |
